Assay results taken from patent EP1947117A2.

How the values were obtained:
[1] = target: human TSH receptor on CHO cells (CHO-hTSHR clone JP09) (human) (UniProt P16473); test: cell-based or functional assay
[2] = target: porcine TSH receptor (solubilized porcine thyroid membranes) (porcine) (UniProt Q8SPP9); test: competitive displacement of 125I-bTSH from solubilized porcine thyroid membranes

Question: For “bovine thyroid stimulating hormone (bTSH) (from UniProt P01217 25-120; P01223 21-132) (ligand)”, which cAMP stimulation in JP09 cells, EC50 [1] is on record?
Answer: The cAMP stimulation in JP09 cells, EC50 was 0.71 ng/mL.

Question: And the cAMP stimulation in JP09 cells, relative potency (WT=1) [1]?
Answer: The cAMP stimulation in JP09 cells, relative potency (WT=1) was 9.4 fold (WT=1).

Question: And the EC25 of inhibition of 125I-bTSH binding [2]?
Answer: Its EC25 of inhibition of 125I-bTSH binding is 7.9 ng/mL.
